AlphaSeq binding of Ab-91 heavy chain variants to a spike HR2 peptide

Values reported by Engelhart et al. 2022, doi:10.1038/s41597-022-01779-4 (FLAb copy).

Antigen: PDVDLGDISGINAS, a 14-residue peptide of the SARS-CoV-2 spike HR2 region.

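The starting antibody came from a phage panning campaign against this peptide. In library AAYL51, one, two or three CDR residues were substituted; doubles and triples were drawn at random. The assay is AlphaSeq: two haploid yeast populations carry antibody and antigen on their surface. Pairs that bind mate more often; barcode pairs of the diploids are counted by sequencing. Each replicate has its own calibration line, from reference interactions of the BCL2 family. Each pool was mated in three replicate cultures.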

Ab-91 is the parent antibody, in scFv form: VL, then three GGGGS repeats, then VH. The light chain is unchanged in all variants.
VL: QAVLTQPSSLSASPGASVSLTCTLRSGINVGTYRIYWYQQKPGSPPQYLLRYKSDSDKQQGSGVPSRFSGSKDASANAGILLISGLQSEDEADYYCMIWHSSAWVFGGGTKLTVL
VH: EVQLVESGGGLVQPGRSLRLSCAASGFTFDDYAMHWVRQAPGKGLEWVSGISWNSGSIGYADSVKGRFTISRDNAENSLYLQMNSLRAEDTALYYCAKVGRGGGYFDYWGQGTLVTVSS

Substitutions are numbered in sequence along the VH above, starting at 1 (not Kabat).
Numbers give log10(Kd / nM), so 0 is 1 nM and 3 is 1 µM. Smaller is tighter.
Replicates are averaged; those with no signal do not enter the mean.
Where no diploid with the target was found in that replicate, the entry reads "n.d.": below detection, most likely a poor binder, though not proof of it.
For reference, the parent read 1.86 as the reference entry and 0.88 as a member of this library.

{"changes": "F29E+Y32I+S52Q", "log10 Kd, replicates": "3.26 n.d. 4.48", "log10 Kd (nM), mean": "3.87", "empty controls": "3/9 (3.29)"}
{"changes": "G103W+F106D+D107K", "log10 Kd, replicates": "n.d. n.d. n.d.", "log10 Kd (nM), mean": "n.d.", "empty controls": "0/9"}
{"changes": "M34V+G102C+G103P", "log10 Kd, replicates": "3.37 4.53 4.43", "log10 Kd (nM), mean": "4.11", "empty controls": "2/9 (5.05)"}
{"changes": "G50I+G56V+Y60H", "log10 Kd, replicates": "n.d. n.d. n.d.", "log10 Kd (nM), mean": "n.d.", "empty controls": "2/9 (4.09)"}
{"changes": "T28E+G56Q+S63Y", "log10 Kd, replicates": "n.d. n.d. n.d.", "log10 Kd (nM), mean": "n.d.", "empty controls": "0/9"}
{"changes": "G100Q+G104W", "log10 Kd, replicates": "n.d. n.d. n.d.", "log10 Kd (nM), mean": "n.d.", "empty controls": "0/9"}
{"changes": "I51D+G59P+Y108P", "log10 Kd, replicates": "n.d. n.d. n.d.", "log10 Kd (nM), mean": "n.d.", "empty controls": "1/9 (3.14)"}
{"changes": "D31L+H35M+S55F", "log10 Kd, replicates": "n.d. n.d. n.d.", "log10 Kd (nM), mean": "n.d.", "empty controls": "0/9"}
{"changes": "M34F+G59A+G100K", "log10 Kd, replicates": "4.93 n.d. n.d.", "log10 Kd (nM), mean": "4.93", "empty controls": "2/9 (5.34)"}
{"changes": "I51Y+Y108H", "log10 Kd, replicates": "n.d. n.d. 3.76", "log10 Kd (nM), mean": "3.76", "empty controls": "3/9 (4.37)"}
{"changes": "G56A+V64L", "log10 Kd, replicates": "1.28 1.35 0.98", "log10 Kd (nM), mean": "1.20", "empty controls": "1/9 (4.47)"}
{"changes": "T28C+S63A+G103K", "log10 Kd, replicates": "1.98 2.89 2.11", "log10 Kd (nM), mean": "2.33", "empty controls": "0/9"}
{"changes": "N54W+S55N+A61I", "log10 Kd, replicates": "5.41 n.d. n.d.", "log10 Kd (nM), mean": "5.41", "empty controls": "4/9 (4.65)"}
{"changes": "M34E+V64I+G103Y", "log10 Kd, replicates": "3.50 n.d. 3.99", "log10 Kd (nM), mean": "3.74", "empty controls": "1/9 (1.84)"}
{"changes": "Y32E+S52K+A61V", "log10 Kd, replicates": "4.94 5.43 n.d.", "log10 Kd (nM), mean": "5.19", "empty controls": "4/9 (4.54)"}
{"changes": "F27H+F29V+G50P", "log10 Kd, replicates": "n.d. 4.90 n.d.", "log10 Kd (nM), mean": "4.90", "empty controls": "0/9"}
{"changes": "G59I+S63V+G104Q", "log10 Kd, replicates": "n.d. 5.00 n.d.", "log10 Kd (nM), mean": "5.00", "empty controls": "0/9"}
{"changes": "H35R+G59T+R101F", "log10 Kd, replicates": "5.69 4.24 5.45", "log10 Kd (nM), mean": "5.13", "empty controls": "4/9 (4.11)"}
{"changes": "M34F+D62G+G102E", "log10 Kd, replicates": "n.d. 4.90 n.d.", "log10 Kd (nM), mean": "4.90", "empty controls": "1/9 (5.00)"}
{"changes": "T28G+R101D+D107Q", "log10 Kd, replicates": "n.d. n.d. n.d.", "log10 Kd (nM), mean": "n.d.", "empty controls": "2/9 (3.41)"}
{"changes": "A61W+G102L", "log10 Kd, replicates": "n.d. n.d. n.d.", "log10 Kd (nM), mean": "n.d.", "empty controls": "1/9 (3.47)"}

Picked from the list: the 2 lowest averages where every replicate gave a value.

changes,"log10 Kd, replicates","log10 Kd (nM), mean",empty controls
G56A+V64L,1.28 1.35 0.98,1.20,1/9 (4.47)
T28C+S63A+G103K,1.98 2.89 2.11,2.33,0/9

As a blank, each scFv also met three strains without target: over library AAYL51, 21% of these pairings were detected, typically at 4.54 and seldom below 3.26. For each scFv, signals with the empty controls are counted beside the result, with their mean in brackets.